Apparent affinities of Ab-14 variants for a coronavirus HR2 peptide

Source: Engelhart et al. 2022 (doi:10.1038/s41597-022-01779-4), MIT Lincoln Laboratory and A-Alpha Bio; data file from the FLAb repository.

Target: peptide PDVDLGDISGINAS, taken from heptad repeat 2 (HR2) of SARS-CoV-2 spike.

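Phage display of a naive human antibody library on the peptide gave the parent. Library AAYL49 holds single substitutions and randomly drawn double and triple substitutions in the CDRs. The scFvs were displayed on barcoded MATa yeast, the peptide on MATalpha yeast. Pairs that bind mate more often; barcode pairs of the diploids are counted by sequencing. Each replicate has its own calibration line, from reference interactions of the BCL2 family. The assay was run in three technical replicates.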

Ab-14 is the parent antibody, in scFv form: VH, then the linker GGGGSGGGGSGGGGS, then VL. The light chain is unchanged in all variants.
VH: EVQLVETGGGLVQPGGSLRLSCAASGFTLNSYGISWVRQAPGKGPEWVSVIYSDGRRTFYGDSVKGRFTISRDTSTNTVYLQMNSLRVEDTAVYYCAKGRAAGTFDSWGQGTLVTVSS
VL: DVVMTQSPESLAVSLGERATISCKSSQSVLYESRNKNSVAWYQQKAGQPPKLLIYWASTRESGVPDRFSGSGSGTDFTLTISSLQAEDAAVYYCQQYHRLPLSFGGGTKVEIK

Positions count from residue 1 of the parent VH; N30V puts V in place of N.
All variants listed here change G99 of the VH, counted from its first residue.
Each Kd is an estimate from the mating assay, the geometric mean of the replicates in which the pair was seen; lower is stronger.
"no signal" marks a missing value. The strain was present, yet no cells mated with the target were sequenced in any replicate, which points to weak or no binding.
Parent in this assay: reference entry 4.4 nM, copy in this library 13 µM (one replicate of three).
Three control strains display no target. For library AAYL49, 15% of the pairings with them gave a signal, with a median of 11 µM and one signal in twenty below 680 nM, so weak values seen in few replicates may be background.

Variant N30V+I34S+G99A showed no signal (0 of 3 replicates).
Variant L29I+Y52E+G99D showed 34 µM (2 of 3 replicates).
Variant G26D+V50W+G99M showed no signal (0 of 3 replicates).
Variant G99C+T104H+D106M showed 7.3 nM (3 of 3 replicates).
Variant Y32P+G99R+A101I showed 48 µM (1 of 3 replicates).
Variant G33T+G99D+F105R showed 24 µM (1 of 3 replicates).
Variant G99P+R100W+S107M showed no signal (0 of 3 replicates).
Variant D54F+F59M+G99Y showed 7.0 µM (2 of 3 replicates).
Variant T58D+S63W+G99A showed no signal (0 of 3 replicates).
Variant I51F+G61D+G99I showed no signal (0 of 3 replicates).
Variant Y60Q+G61M+G99L showed no signal (0 of 3 replicates).
Variant N30W+Y60E+G99R showed 57 µM (3 of 3 replicates).
Variant I51L+S63D+G99W showed 8.9 µM (3 of 3 replicates).
Variant R57I+G99N showed no signal (0 of 3 replicates).
Variant L29Y+G99F+D106S showed no signal (0 of 3 replicates).
Variant T28H+G99Y+G103K showed no signal (0 of 3 replicates).
Variant F59H+G99Y+T104C showed no signal (0 of 3 replicates).
Variant G55K+G99S+T104C showed no signal (0 of 3 replicates).
Variant S31H+G99V+A102Y showed 3.4 µM (1 of 3 replicates).
Variant S31P+Y52V+G99P showed 120 µM (1 of 3 replicates).
Variant G55P+G99C+F105N showed no signal (0 of 3 replicates).
Variant D62T+G99W+D106V showed 140 nM (1 of 3 replicates).
Variant G61Q+G99F showed 6.6 nM (3 of 3 replicates).
Variant G26P+Y32S+G99I showed no signal (0 of 3 replicates).
Variant G99H+A101M+S107A showed no signal (0 of 3 replicates).
Variant Y60D+G99R+R100L showed 2.8 µM (2 of 3 replicates).
Variant G61W+K65E+G99T showed 5.3 µM (1 of 3 replicates).
Variant G26R+F27N+G99A showed 130 nM (3 of 3 replicates).
Variant G99A showed no signal (0 of 3 replicates).
Variant S63M+G99M+G103I showed no signal (0 of 3 replicates).
Variant T28R+N30H+G99N showed no signal (0 of 3 replicates).
Variant I34M+S63G+G99D showed 12 µM (3 of 3 replicates).
Variant D62G+G99A+R100W showed no signal (0 of 3 replicates).
Variant G99C+R100S showed 380 µM (1 of 3 replicates).